Target: BamE (E. coli) (UniProt P0A937)
Assay: SEC + native MS; purified BamABCDE; SDS-PAGE, gel filtration (Superdex200 10/300 GL, TBS with 0.05% DDM, 21 °C) and non-covalent nanoESI-MS named together for the molar ratio

- stoichiometry N: 1 molar ratio
Substance: BamA (from UniProt P0A940 21-810) (natural protein; other documents disagree on this pair)

Source: article PMC5056442
